## Measured affinities in a library of Ab-14 heavy chain variants

Values reported by Engelhart et al. 2022, doi:10.1038/s41597-022-01779-4 (FLAb copy).

Antigen: PDVDLGDISGINAS, a 14-residue peptide of the SARS-CoV-2 spike HR2 region.

The variants keep the light chain, the linker and the frameworks of Ab-14 (scFv order VH, a (GGGGS)3 linker, VL).
VH: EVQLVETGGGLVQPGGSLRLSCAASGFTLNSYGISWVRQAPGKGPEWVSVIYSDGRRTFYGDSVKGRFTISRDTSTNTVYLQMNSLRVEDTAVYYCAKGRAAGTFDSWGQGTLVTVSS
VL: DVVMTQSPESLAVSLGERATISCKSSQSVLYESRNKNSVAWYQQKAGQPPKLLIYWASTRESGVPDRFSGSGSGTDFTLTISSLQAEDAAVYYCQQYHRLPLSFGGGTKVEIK

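Phage display of a naive human antibody library on the peptide gave the parent. AAYL49 was designed without a model: most single CDR substitutions and a random sample of double and triple ones. In AlphaSeq, yeast of one mating type display the scFv and yeast of the other type display the target. The frequency of each diploid, read from paired DNA barcodes, reflects how well the two displayed proteins bind. Read counts were normalised to the haploid input and turned into Kd by a linear fit to BCL2-family pairs of known affinity, for each replicate. There are three technical replicates.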

The parent's heavy chain CDRs are GFTLNSYGIS, VIYSDGRRTFYGDSVK, GRAAGTFDS; each variant's own CDRs replace them letter for letter. Values are log10 of the apparent Kd in nM; lower means stronger binding. A mean of the replicates is given; it leaves out those without a signal. "ND" means that the variant was in the library but no mating with the target was seen in that replicate; the authors take this as a sign of poor binding, and no number exists. Parent in this assay: reference entry 0.65, copy in this library 4.11 (one replicate of three). Three control strains display no target. For library AAYL49, 15% of the pairings with them gave a signal, with a median of 4.06 and one signal in twenty below 2.83, so weak values seen in few replicates may be background. The control count says in how many pairings with the empty strains this scFv gave a signal, with their mean in brackets.

CDR-H1	CDR-H2	CDR-H3	log10 Kd, replicates	log10 Kd (nM), mean	control signals
GFTLVSYGIS	VIYSDGRRTFYGDSMK	GRAAGHFDS	1.58 2.32 1.78	1.89	0 of 9
GFTLNSYGKS	TIYSDGRTTFYGDSVK	GRAAGTFDS	ND ND ND	ND	0 of 9
GFTYNSYGIS	VIYSTGRRTFYGDSVK	GRAAGTYDS	ND ND 4.36	4.36	1 of 9 (3.69)
GFTLNSRGIS	VIYSDSRRTFGGDSVK	GRAAGTFDS	ND ND ND	ND	3 of 9 (4.03)
EFTLNSYGIS	VMYSPGRRTFYGDSVK	GRAAGTFDS	ND ND 3.19	3.19	0 of 9
GFTLVSYGIS	VIYSDGRRTFYPDSVK	GRPAGTFDS	ND ND ND	ND	0 of 9
GFTLNSPGIS	VIYSDGRRTFYGTSVK	HRAAGTFDS	ND ND ND	ND	0 of 9
GFTLNSYGIS	VIYSDGRRTFYIDSVK	GRAAGTNDS	1.57 1.65 1.92	1.71	2 of 9 (5.16)
MFTLNIYGIS	VICSDGRRTFYGDSVK	GRAAGTFDS	ND ND 4.73	4.73	5 of 9 (4.75)
GFTLNSYGIS	VIYADGRRTFTGDSVK	GQAAGTFDS	2.20 2.19 2.53	2.30	0 of 9
GFTLNSLGIS	VIYVYGRRTFYGDSVK	GRAAGTFDS	ND 3.49 3.33	3.41	1 of 9 (4.42)
GFTLNSYGIA	VIYSDSRRTFYGDSVK	GRAAETFDS	ND 3.37 ND	3.37	1 of 9 (4.42)
GFTLNSYGIS	VIYSDGRRTFYGDHVK	GRWAGTFQS	6.30 ND ND	6.30	4 of 9 (4.22)
GFTLNSYGIS	PIYSDGRRTGYGDSVK	GRANGTFDS	4.75 ND ND	4.75	1 of 9 (2.93)
GFTLNSYGIS	VIYSDGRRTFKSDSVK	SRAAGTFDS	ND ND ND	ND	1 of 9 (3.52)
GFTLNSYGIS	VIYDDGRRTFYGDRVK	GTAAGTFDS	ND ND 4.17	4.17	1 of 9 (4.38)
GFTLNSYGIS	DIYSDGRRTFYGDSVK	GRAAGKFDS	ND ND ND	ND	0 of 9
GFTLNSYGIS	VIYSDGNRTFYGYSVK	GRAHGTFDS	ND ND 3.65	3.65	0 of 9
GFTLNSYGIS	VKYEDGRRTFYGDSGK	GRAAGTFDS	ND 4.29 ND	4.29	1 of 9 (3.11)
GFTLNSYGIS	VIYSDGGRTEYGDSVK	GRAAGTFDS	2.16 2.80 4.31	3.09	3 of 9 (3.81)
GFCLTSYGIS	VIYSDGRRTFYGDNVK	GRAAGTFDS	1.61 1.74 1.98	1.78	0 of 9
GFTLNSYGIS	VIYSDGRTTFYGDSVK	GRAAGTGES	ND 4.01 ND	4.01	2 of 9 (3.95)
GFTLNSYGIS	VIYSDGRRRFYGDSVK	GRAAGTFDS	1.52 1.57 1.94	1.68	3 of 9 (3.91)
GFTLNSYGIS	VWYSDGARTFYGTSVK	GRAAGTFDS	3.80 ND ND	3.80	1 of 9 (3.94)
GFTLNSYGIS	VIYSDWRRTFYGFSVK	GRAAGTFIS	ND ND ND	ND	1 of 9 (2.03)
GFTLNSYGIS	VNYSDGRRTFYGDSVK	GRAAGTFDV	ND 3.84 4.49	4.16	3 of 9 (4.95)
EFTLNSYGIS	YIYSDGRRTVYGDSVK	GRAAGTFDS	4.04 ND ND	4.04	1 of 9 (3.53)
GFTLNSAGIS	VIYSDGRRTFYGDSVK	GRAYRTFDS	3.22 2.39 3.77	3.13	6 of 9 (3.82)
GFTLNSYGIS	VIYLDGRRTQYGDSVK	GRAAGTFDK	ND ND 4.44	4.44	1 of 9 (3.16)
GFTLNSYGIS	VIYSDGRRTFYGDPVK	GRAAGTFDS	1.65 1.57 1.57	1.59	1 of 9 (2.98)
GFTWNSYGIS	WIYSDGRRTFYGDSVK	GRARGTFDS	ND ND ND	ND	0 of 9
GFTLNSYGIS	NIYSDGAKTFYGDSVK	GRAAGTFDS	ND 3.91 ND	3.91	1 of 9 (3.68)
GFTLNSYGIS	VCYSDGMRIFYGDSVK	GRAAGTFDS	ND ND ND	ND	0 of 9
GFTLNSYGIS	VIYSGGLRTFYGDSVK	GRAANTFDS	ND ND ND	ND	2 of 9 (3.85)
GFTLNSYGIS	VIYSDGMRTFYGDHVK	GRAAGTFDS	1.44 1.43 2.11	1.66	0 of 9
GFTLNSYGIS	FYYSDGRRTFYGDSVK	DRAAGTFDS	ND ND ND	ND	0 of 9
GFTLNSYGIS	VIYSDGSFTFYGDSVK	GRAAGTFDS	ND ND ND	ND	0 of 9
GVTLNSYGIS	VIYSDGRRTGYGDSVK	GRAQGTFDS	ND ND ND	ND	5 of 9 (4.28)
GFTDNSYGIS	VIYSDGPRTFYGDSIK	GRAAGTFDS	ND ND ND	ND	0 of 9
GFTLNSYGQS	VLTSDGRRTFYGDSVK	GRAAGTFDS	4.88 ND 4.81	4.84	2 of 9 (4.45)
GFTLNSYGIS	QIYEDGRRTFYGDSVK	GRAAGTFDR	ND ND ND	ND	0 of 9
GFTLNSAGIS	PIYSDGRRTFYKDSVK	GRAAGTFDS	1.92 ND ND	1.92	1 of 9 (3.59)
TFTLNSYGIS	VYYSDGRRTFYGDSVK	GRKAGTFDS	4.87 4.73 5.63	5.08	3 of 9 (3.88)
GFTLNSYGIS	PIYSDGRRTFYGDSVK	GRAAGTFHY	4.58 4.33 5.58	4.83	3 of 9 (4.23)
GFTLNSYGIS	VIYSDGRLTFYGDSVK	GRAAGTFDS	ND ND ND	ND	0 of 9
GFTLNSSGIS	VIYSDGRRTDYGDSKK	GRAAGTFDS	ND ND ND	ND	1 of 9 (3.70)
GFTLNSYGIS	VIVSKGRRFFYGDSVK	GRAAGTFDS	ND ND ND	ND	1 of 9 (4.39)
GFTLNSYGIS	VIYSDGRKTFYGDSVK	GRAAGTFFS	1.48 1.47 1.23	1.40	1 of 9 (3.99)
GFTLNSYHIS	VIYSDGRRTFYGDTVK	GRAAGTFDD	ND ND ND	ND	0 of 9

The closing 3 entries, repeated:

{"CDR-H1": "GFTLNSYGIS", "CDR-H2": "VIVSKGRRFFYGDSVK", "CDR-H3": "GRAAGTFDS", "log10 Kd, replicates": "ND ND ND", "log10 Kd (nM), mean": "ND", "control signals": "1 of 9 (4.39)"}
{"CDR-H1": "GFTLNSYGIS", "CDR-H2": "VIYSDGRKTFYGDSVK", "CDR-H3": "GRAAGTFFS", "log10 Kd, replicates": "1.48 1.47 1.23", "log10 Kd (nM), mean": "1.40", "control signals": "1 of 9 (3.99)"}
{"CDR-H1": "GFTLNSYHIS", "CDR-H2": "VIYSDGRRTFYGDTVK", "CDR-H3": "GRAAGTFDD", "log10 Kd, replicates": "ND ND ND", "log10 Kd (nM), mean": "ND", "control signals": "0 of 9"}